Consider 1 substance from publication PMC4157643 (Journal of pharmaceutical sciences, 2012).

Like-named read-outs stand apart in the source and are kept apart here.

The conditions of the data set: vitreous humor, two-compartment model, n=4.

In the case of glucosyl hesperidin [hesperidin G], the V2 reads like this: (intravitreal dose 1.5 µg) 1.00 ± 0.07 mL; (intravitreal dose 4.5 µg) 0.81 ± 0.05 mL; (intravitreal dose 15 µg) 0.78 ± 0.16 mL.
